# Biological target: T1, a disintegrin and metalloproteinase-17 catalytic domain (6xHis-ADAM-17cd) (UniProt P78536)
# The chains behind the UniProt entries cited, without tags or fusion partners. Residues count along the entry.
# UniProt P78536, 215-474: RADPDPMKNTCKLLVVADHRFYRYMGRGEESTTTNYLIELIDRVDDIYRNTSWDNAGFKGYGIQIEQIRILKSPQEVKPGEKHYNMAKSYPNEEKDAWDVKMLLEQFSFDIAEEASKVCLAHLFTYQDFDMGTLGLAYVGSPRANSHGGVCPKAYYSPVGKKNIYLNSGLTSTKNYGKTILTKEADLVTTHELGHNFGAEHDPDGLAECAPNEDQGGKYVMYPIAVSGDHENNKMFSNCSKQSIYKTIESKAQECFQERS
# T1 construct: ADAM-17 (TACE), catalytic domain; also called TACE; tumor necrosis factor-α-converting enzyme; source: bought: Enzo Life Sciences
# Test: flow cytometry on cells; scFv variants or TIMP-3 displayed on yeast; soluble 6xHis-ADAM-17cd or MMP-9cd at 100 nM (legend and results; the methods say 150 nM); PBSA pH 7.4; binding read with anti-6xHis Alexa Fluor 647, expression with anti-c-Myc and Alexa Fluor 488; median binding normalised to expression
# Details: one partner purified
row,binding result,Binder
1,binds,"SynAb-A4 scFv displayed on yeast (scFv, V domains shown, light chain variable domain as printed; glycine-rich peptide linker between VL and VH; heavy chain variable domain as printed; CDR-H3 PTSYYY; VL-VH orientation; The printed CDR-H3 has six residues, while the text speaks of 7, 9 and 11; source: yeast surface display, S. cerevisiae RJY100, pCTCON2 vector; not shown: Aga2p, N-terminal, kept) VH: EVQLVESGGGLVKPGGSLRLSCAASGFTFSNAWMSWVRQAPGKGLEWVGRIKSKTDGGTTDYAAPVKGRFTISRDDSKNTLYLQMNSLKTEDTAVYYCARPTSYYYFDYWGQGTLVTVSS VL: [about 100 residues left out]FGPGTKVDIK"
2,binds,"SynAb-A10 scFv displayed on yeast (scFv, V domains shown, light chain variable domain as printed; glycine-rich peptide linker between VL and VH; heavy chain variable domain as printed; CDR-H3 TYASTPMLD; VL-VH orientation; source: yeast surface display, S. cerevisiae RJY100, pCTCON2 vector; not shown: Aga2p, N-terminal, kept) VH: EVQLVESGGGLVKPGGSLRLSCAASGFTFSNAWMSWVRQAPGKGLEWVGRIKSKTDGGTTDYAAPVKGRFTISRDDSKNTLYLQMNSLKTEDTAVYYCARTYASTPMLDFDYWGQGTLVTVSS VL: [about 100 residues left out]FGPGTKVDIK"
